Experimental data published in EP4821925A2, “MRGPRX2 ANTAGONIST AND USE THEREOF” (dated 2026).

Sequences of proteins named here, by UniProt entry; tags and fusion partners are left off.
UniProt Q96LB1, whole entry: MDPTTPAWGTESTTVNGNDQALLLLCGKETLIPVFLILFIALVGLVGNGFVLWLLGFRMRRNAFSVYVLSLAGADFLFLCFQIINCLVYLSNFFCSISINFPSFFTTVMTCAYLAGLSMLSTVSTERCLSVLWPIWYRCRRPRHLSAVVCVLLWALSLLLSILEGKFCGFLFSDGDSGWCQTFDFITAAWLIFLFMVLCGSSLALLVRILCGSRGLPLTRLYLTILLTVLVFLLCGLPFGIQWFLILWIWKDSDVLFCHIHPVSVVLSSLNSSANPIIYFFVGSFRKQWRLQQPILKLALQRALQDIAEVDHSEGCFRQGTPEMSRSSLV
UniProt O95342, whole entry: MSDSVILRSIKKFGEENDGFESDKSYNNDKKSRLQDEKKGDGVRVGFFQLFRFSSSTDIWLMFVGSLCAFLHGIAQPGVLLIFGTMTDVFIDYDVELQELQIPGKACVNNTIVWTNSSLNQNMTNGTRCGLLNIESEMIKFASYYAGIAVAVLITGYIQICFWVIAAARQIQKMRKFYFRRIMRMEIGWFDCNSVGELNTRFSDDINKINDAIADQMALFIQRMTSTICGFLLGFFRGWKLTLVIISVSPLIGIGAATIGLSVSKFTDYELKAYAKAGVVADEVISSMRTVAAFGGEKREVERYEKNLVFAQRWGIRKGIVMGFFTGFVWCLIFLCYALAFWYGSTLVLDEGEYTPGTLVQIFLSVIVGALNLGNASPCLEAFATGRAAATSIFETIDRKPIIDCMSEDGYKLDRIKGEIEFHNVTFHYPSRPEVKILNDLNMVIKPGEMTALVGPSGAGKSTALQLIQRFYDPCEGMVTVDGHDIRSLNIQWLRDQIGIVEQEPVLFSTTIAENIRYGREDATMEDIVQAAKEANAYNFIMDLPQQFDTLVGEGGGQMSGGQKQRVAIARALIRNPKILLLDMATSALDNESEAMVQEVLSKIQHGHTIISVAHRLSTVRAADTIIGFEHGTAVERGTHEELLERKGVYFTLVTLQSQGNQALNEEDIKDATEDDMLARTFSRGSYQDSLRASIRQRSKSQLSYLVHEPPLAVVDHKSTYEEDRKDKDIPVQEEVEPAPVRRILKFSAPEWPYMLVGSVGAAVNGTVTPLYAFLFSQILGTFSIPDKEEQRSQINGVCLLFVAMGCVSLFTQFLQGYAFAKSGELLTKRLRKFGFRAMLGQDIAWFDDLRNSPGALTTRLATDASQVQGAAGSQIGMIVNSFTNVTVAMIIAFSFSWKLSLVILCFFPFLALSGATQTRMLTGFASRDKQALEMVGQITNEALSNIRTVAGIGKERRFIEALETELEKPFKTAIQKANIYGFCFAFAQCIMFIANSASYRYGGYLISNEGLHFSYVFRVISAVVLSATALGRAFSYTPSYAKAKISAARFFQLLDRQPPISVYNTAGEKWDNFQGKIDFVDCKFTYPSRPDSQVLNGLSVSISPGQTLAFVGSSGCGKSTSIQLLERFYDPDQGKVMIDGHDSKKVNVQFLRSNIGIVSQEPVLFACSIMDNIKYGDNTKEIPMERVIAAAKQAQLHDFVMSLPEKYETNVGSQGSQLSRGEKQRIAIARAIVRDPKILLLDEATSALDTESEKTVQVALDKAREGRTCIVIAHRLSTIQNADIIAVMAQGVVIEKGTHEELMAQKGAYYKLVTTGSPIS

How the values were obtained:
human MRGPRX2 = human MRGPRX2 (Homo sapiens, UniProt Q96LB1); experiment: MRGPRX2 in vitro IP-1 assay; conditions: CHO stably-transfected cell line highly expressing human MRGPRX2; agonist Cortistatin-14; IP-1 readout 665 nm/620 nm
Protocol: The antagonistic effect of the compounds on MRGPRX2 was determined in a CHO stably-transfected cell line that highly expresses human MRGPRX2. The drugs prepared by serial dilution with DMSO were added to a micropore plate, and the stably-transfected cells were treated with trypsin. The cells were collected, counted, and then seeded into the microplate, and the microplate was incubated at 37 °C for 10 min. Cortistatin-14 solution at a specific concentration was added, and the cells were centrifuged and then incubated at 37 °C for 60 min. After the incubation was completed, diluted d2-IP1 and Anti-IP 1-Cryptate were added to each well. The cells were centrifuged and then left to stand at room temperature for 1 h. After the incubation was completed, the fluorescence readings at 665 nm and 620 nm were obtained. The concentration of the compound was plotted on the X-axis, and the fluorescence signal ratio was plotted on the Y-axis. The antagonistic effect (IC50 value) of the compound was calculated using Graphpad software. Table 2: MRGPRX2 IP-1 assay results

[1] = Pharmacokinetic assay in mice; conditions: oral intragastric administration, 10 mg/kg, plasma
Protocol: (§1) Pharmacokinetic assay in mice was performed, and the mice used were male ICR mice weighing 20-25 g and fasted overnight. Three mice were used, and oral intragastric administration was performed at a dose of 10 mg/kg. Blood was collected before administration and at 15 min, 30 min and 1 h, 2 h, 4 h, 8 h, and 24 h after administration. The blood samples were centrifuged at 6800 g at 2-8 °C for 6 min, and plasma was collected and stored at -80 °C. The plasma at each time point was taken, and 3-5 times its amount of an acetonitrile solution containing an internal standard was added for mixing. The mixture was vortexed for 1 min and then centrifuged at 13000 rpm at 4 °C for 10 min. The supernatant was taken, and 3 times its amount of water was added for mixing. An appropriate amount of the resulting mixture was taken for LC-MS/MS analysis. The major pharmacokinetic parameters were analyzed using a non-compartmental model in the WinNonlin 7.0 software. Table 4. Results of pharmacokinetic assay in mice

[2] = Pharmacokinetic assay in rats; conditions: oral intragastric administration, 10 mg/kg, plasma
Protocol: as §1, with “rats” for “mice”, “SD rats” for “ICR mice”, “180-240” for “20-25”, “5.” for “4.”

human BSEP = human BSEP (Homo sapiens, UniProt O95342); experiment: Assay for inhibitory effect on BSEP (vesicle transport); conditions: vesicle expressing human BSEP, probe substrate transport, 37 °C
Protocol: The assay for the inhibitory effect on bile salt export pump (BSEP) by the compounds was performed using a vesicle expressing human BSEP (GenoMembrane). The compounds at different concentrations were pre-incubated with the vesicle for 5 min, with a negative control (NC) group and a positive control (PC) group set up. The NC group involved pre-incubation of the vesicle with blank buffer at 37 °C for 5 min, and the PC group involved pre-incubation of the vesicle with a positive inhibitor at 37 °C for 5 min. Subsequently, with the addition ofATP or AMP separately, the mixture was incubated with the probe substrate at 37 °C for 5 min. The assay was terminated using pre-cooled Buffer B1 (10 × Buffer B1 (Stopping and Washing Buffer): 100 mM Hepes-Tris, 1000 mM KNO3, 500 mM Sucrose). The test samples were transferred to a 96-well filter plate, subjected to suction filtration by a vacuum pump, and then washed 5 times with 0.2 mL of pre-cooled Buffer B1. 50 µL of 80% methanol was used to dissolve the vesicles on the filter plate. After collection, the mixture was centrifuged at 2000 rpm for 2 min to collect the filtrate, and the process was repeated once. The two filtrates were combined and mixed well to obtain approximately 100 µL of filtrate. Pre-cooled methanol containing an internal standard was added, and the mixture was centrifuged at 12,000 rpm for 5 min. The supernatant was collected for LC-MS/MS quantification analysis to detect the amount of substrate transported. The concentration of the compound was plotted on the X axis, and the relative activity (% of NC) was plotted on the Y axis. The IC50 value and the inhibition rate of the compound on inhibiting bile salt export pump activity were calculated using Prism software.
The transport rate (activity) and relative activity under different conditions were calculated according to the following formulas: Substrate active transport rate (pmol/min/mg) =; (transport amount of substrate driven by ATP−average transport amount of substrate driven by AMP (pmol))/(incubation time (min) × vesicle protein amount (mg)) [formula] Relative activity (%ofNC) = (transport activity of PC sample or test sample)/(transport activity of NC sample)% [formula] Table 6. Inhibitory effect of test compounds on BSEP

[3] = Human liver microsome stability assay; conditions: human liver microsomes, NADPH, 37 °C
Protocol: The human liver microsome stability assay was performed by co-incubating the compounds with human liver microsomes in vitro. Test compounds were first prepared as 10 mM stock solutions in DMSO solvent, followed by dilution of the compounds to 0.5 mM using acetonitrile. Human liver microsomes (Corning) were diluted with PBS to form a microsome/buffer solution, and 0.5 mM compound was diluted with this solution to form a working solution with a compound concentration of 1.5 µM and a human liver microsome concentration of 0.75 mg/mL. A deep-well plate was used, and 30 µL of the working solution was added to each well. Subsequently, 15 µL of pre-warmed 6 mM NADPH solution was added to start the reaction, and the plate was incubated at 37 °C. Reactions were terminated by adding 135 µL of acetonitrile to the corresponding wells at 0, 5, 15, 30, and 45 min of incubation. After the reaction was terminated with acetonitrile at the last 45 min time point, the deep-well plate was vortexed for 10 min (600 rpm/min) and then centrifuged for 15 min. The supernatant was collected after centrifugation, and purified water was added at a ratio of 1:1 for LC-MS/MS analysis to obtain the ratio of peak area of compound to peak area of internal standard at each time point. The peak area ratios of the compounds at 5, 15, 30, and 45 min were compared with the peak area ratio thereof at 0 min, and the remaining percentage of compounds at each time point was calculated. T1/2 was calculated using Graphpad 5 software. Table 8. Human liver microsome stability data for the compounds

Compound | IC50 (human MRGPRX2) | AUC0-t [1] | Cmax [1] | AUC0-t [2] | Cmax [2] | IC50 (human BSEP) | Half-life (T1/2, min) [3]
COc1ccc(C(=O)NC2CCC(Nc3cc(C(F)(F)F)c(=O)n(C)n3)CC2)cc1 (centres unmarked) | 0.07 µM | 21770 ng·h/mL | 2642 ng/mL | 36630 ng·h/mL | 3176 ng/mL | 95 µM | 370 min
Cn1nc(N[C@H]2CC[C@@H](NC(=O)c3cn(CC(F)(F)F)nc3Cl)CC2)cc(C(F)(F)F)c1=O | 0.099 µM | 31492 ng·h/mL | 4140 ng/mL | 76414 ng·h/mL | 8730 ng/mL | 79 µM | 482 min
